# Tests used:
# rabbits = assay: BMP-2 induced bone formation in subcutaneously implanted BCP constructs, biomembrane pocket model; assay type: in vivo, rabbit; settings: 1.5 μg BMP-2 alone (control group), subcutaneous, 12 weeks
# Experimental: First, an assessment study was performed to verify the potential for ectopic bone formation in the biomembrane pocket model. Established constructs for ectopic bone formation, i.e. porous BCP scaffolds loaded with MSCs or BMP-2, were implanted intramuscularly and subcutaneously in rats (n=4) and rabbits (n=4), inside and outside the biomembrane pockets. The bone volume (area%) in the BCP constructs was the primary outcome after 8 (rats) or 12 (rabbits) weeks. Subsequently, the rabbit model (n=11) was used to 1) screen for the potential of inflammatory stimuli to induce bone intramuscularly and to 2) screen for the effects of inflammatory stimuli on BMP-induced bone formation subcutaneously. The bone volume (area%) in the BCP constructs was the primary outcome after 12 weeks.
# For the comparative study (Table 2), inflammatory stimuli were added to the BCP, alone or in combination with BMP-2. Either 1.5 μg of BMP-2 or PBS (15 μl volume) was first applied. Fibrin glue (Tissucol 500®, Baxter, Deerfield, Ill., USA) was subsequently used (55 μl volume) to load the inflammatory mediators onto the constructs. […]
# After shaving and disinfecting the skin with 10% povidone-iodine, a midline incision was made to expose the paraspinal muscles. […] The incorporation of fluorochromes in the bone was examined by fluorescence microscopy on methyl methacrylate-embedded sections. […]
# rats = assay: ectopic bone formation in BMP-2 loaded BCP blocks implanted subcutaneously in rats (Table 3); assay type: in vivo, rat; settings: 15 μg/ml BMP-2 alone, subcutaneous, 8 weeks
# Experimental: S. aureus (Wood 46) were cultured to mid-log phase in LB medium. The bacteria were stored overnight in PBS at 4° C. and gamma-irradiated at 25 kGy (Isotron Nederland, Ede, The Netherlands). Their inactivation was confirmed by culture on agar plates. The bacteria were stored at −80° C. in PBS supplemented with 20% glycerol until the day of implantation.
# Biphasic calcium phosphate (BCP) blocks were made with dimensions of 3.5×3.5×3 mm. […] The BCP blocks were autoclaved at 121° C. for 30 min and dried at 60° C. A volume of 35 μl was seeded onto the BCP blocks with a final concentration of bacteria of 2×10^6-2×10^10 CFU/ml. In half of the samples, BMP-2 was added at a final concentration of 15 μg/ml. Samples were stored at 4° C. until implantation.
# 8 male Fischer rats (14 weeks old, 300-350 g, F344/IcoCrl, Charles River) were used for the experiment. All animals were housed at the Central Laboratory Animal Institute, Utrecht University. They were allowed to acclimatize for at least two weeks before the surgery. Food and water were given ad libitum. The rats received 3% isoflurane during surgery. […]
# The material was fixed in 4% paraformaldehyde, dehydrated by an ethanol series and embedded in methyl methacrylate (MMA, Merck Millipore). […] The samples were completely sectioned and scored for the presence of bone.
molecule,measurement,setting,value
"BMP-2: recombinant human BMP-2 (InductOS, Wyeth/Pfizer) (protein, UniProt P12643 283-396, looked up) Bone morphogenetic protein 2: QAKHKQRKRLKSSCKRHPLYVDFSDVGWNDWIVAPPGYHAFYCHGECPFPLADHLNSTNHAIVQTLVNSVNSKIPKACCVPTELSAISMLYLDENEKVVLKNYQDMVVEGCGCR",bone area %,rabbits,5.7±5.3 area %
same,No. rats with bone,rats,1/7

# Source: patent US20200138907A1, “Composition for Use in the Treatment of an Individual Suffering a Condition Necessitating New Bone Formation” (priority 2016, published 2020)
